scFv variants of Ab-14 (light chain) against a SARS-CoV-2 spike peptide

The target is the same throughout: PDVDLGDISGINAS, from the HR2 region of SARS-CoV-2 spike.

Each scFv is VH, a 15-residue (Gly4Ser)3 linker, VL, as in the parent Ab-14, and differs from it in the CDRs of the light chain only.
VH: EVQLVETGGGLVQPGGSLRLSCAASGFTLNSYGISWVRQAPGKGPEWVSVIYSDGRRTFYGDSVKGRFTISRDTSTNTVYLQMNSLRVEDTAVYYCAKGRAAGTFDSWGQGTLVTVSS
VL: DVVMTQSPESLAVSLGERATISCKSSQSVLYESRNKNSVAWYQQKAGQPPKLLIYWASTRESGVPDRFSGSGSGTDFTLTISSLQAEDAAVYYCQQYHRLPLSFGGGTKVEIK

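Phage display of a naive human antibody library on the peptide gave the parent. Variants in AAYL50 differ from the parent at up to three CDR positions; double and triple changes were sampled at random. In AlphaSeq, yeast of one mating type display the scFv and yeast of the other type display the target. Mating (16 h, 30 °C) was followed by selection of diploids and sequencing of their barcodes. Scores were corrected for input abundance and mapped to Kd with protein pairs of known affinity run in the same pool. There are three technical replicates.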

Each variant is given by its three light chain CDRs, as the data file delimits them; those of the parent are KSSQSVLYESRNKNSVA, WASTRES, QQYHRLPLS. Every variant below is changed at S58 of the VL (sequential numbering). Affinities are written as log10 Kd with Kd in nM; a lower number is a better binder. A mean of the replicates is given; it leaves out those without a signal. "nd" means that the variant was in the library but no mating with the target was seen in that replicate; the authors take this as a sign of poor binding, and no number exists. Nonspecific signal, from three strains lacking the peptide, appeared in 18% of pairings of library AAYL50, centred on 4.19 (5% of these signals below 2.99); values are not corrected for it. For reference, the parent read 0.65 as the reference entry and 1.68 as a member of this library.

With KFSQSVLYESRPKNSVA / WANTRES / QQYHRLPLS the result was 1.38, 0.97, 0.71 (mean 1.02). With KSSQSVLYESRNKNSVA / WAETRES / QQYGRLPES the result was nd, nd, nd. With KSSQSVLYESRNKNSMA / WAWTRES / QQYHRLPLS the result was 3.02, 2.88, 3.83 (mean 3.24). For KSSQSVLYECRNKNSVA / WATTRED / QQYHRLPLS, the assay gave 0.31, 0.70, 0.37 (mean 0.46). The variant KSSQSVLYEVRNKNSVA / WAGTRES / QQYHRYPLS gave nd, nd, nd. The variant KSSQSVLYESRNKNSVA / WRPTRES / QQYHRLPLS gave nd, nd, nd. For YSSMSVLYESRNKNSVA / WANTRES / QQYHRLPLS, the assay gave nd, nd, nd. The variant KSRQSVLYESRNKNSVA / WAWTRES / QQYHRLPLS gave nd, nd, 4.44.

The variant KSSQSVLYESRNKNSVA / WAETRES / QQYHYLPLH showed 1.55, 1.51, 2.16 (mean 1.74). For KSSQSVLYHHRNKNSVA / WAMTRES / QQYHRLPLS, the assay gave nd, 3.05, nd. The variant KSSQSVLYESRNKNSVA / WADTRES / QQYHQLELS gave nd, 4.54, 4.56 (mean 4.55). The variant KSSQSVLYESRNKNSVA / WAHTRGS / QQYHRLPLS gave 2.13, 2.75, 2.38 (mean 2.42). For KSSQWVLYEERNKNSVA / WADTRES / QQYHRLPLS, the assay gave 4.81, 2.64, nd (mean 3.72). The variant KSSQSVLYESRNKNSVA / WAHTREI / QQYYRLPLS gave 1.06, 1.01, 1.16 (mean 1.07). The variant KSSQSVLYESRDKNSVA / CAGTRES / QQYHRLPLS gave 1.03, 1.16, 1.23 (mean 1.14). For KSSQSVLYESRNKNIVA / WAIERES / QQYHRLPLS, the assay gave 4.50, nd, nd.

With KSSQSVLYESRNKNSVA / WAGTRES / QQYHRLPLS the result was 1.01, 1.39, 1.45 (mean 1.29). For KSSQSVLYMSRNKNSVA / WAMTRES / QQYARLPLS, the assay gave nd, 2.97, 2.80 (mean 2.88). The variant KISQSVLYESRNKNSVA / WAQTRES / QQYHRLPLS gave -0.32, 0.03, -0.20 (mean -0.16). The variant KSSQSVLYESRNKNSVA / WAHTRES / QQTHRLPLS gave nd, 2.05, 2.37 (mean 2.21). The variant KSSQSVLYESRNKNSVA / WAGTRES / QQYHRIPLD showed 1.42, 1.27, 1.19 (mean 1.29). For KSSQSVLYFSRNKTSVA / WACTRES / QQYHRLPLS, the assay gave nd, nd, nd. With KSSQSVLYESRNKNSVG / WAVTREG / QQYHRLPLS the result was 3.64, nd, nd. With KSSQSVLYESRNANSVA / WAHTGES / QQYHRLPLS the result was 3.80, nd, nd.

The variant KSSQSVLYESRNKNSVA / WAKTRES / QQYHRLPLE gave nd, 3.65, 6.44 (mean 5.05). The variant KSSQSVLYESFNKNSVA / WARTRES / QQYHYLPLS showed 4.10, 3.00, 3.11 (mean 3.40). For KSSQSVLYESRNKNSVW / WADFRES / QQYHRLPLS, the assay gave nd, 3.24, nd. The variant KSSQSVLYNSRLKNSVA / WARTRES / QQYHRLPLS gave 2.86, 3.63, nd (mean 3.24). The variant KSSQSVLYYSRNKNSVA / WACTRES / QVYHRLPLS gave 4.43, 4.08, nd (mean 4.26). The variant KSSQSVLYESRNKNSVA / WALTNES / QQYHRLPLS showed nd, 3.01, 4.40 (mean 3.71). The variant KSSQSVLYESRNKNSWA / WATTRES / QQYHRLPLS showed nd, nd, nd. The variant KSEQSVLYESRNKNSVA / WAKTRES / QQYHRLPLR gave 3.75, nd, nd.

With KSSQSVHYESRNKNSVA / WARNRES / QQYHRLPLS the result was 3.29, nd, nd. For KSSQNVLYESRNKNFVA / WAPTRES / QQYHRLPLS, the assay gave nd, nd, nd. The variant KSSQSVEYESRNKNSVA / WAFCRES / QQYHRLPLS gave nd, nd, 5.64. The variant KSSQSVLYESRNKNSVA / WADCREI / QQYHRLPLS gave 1.42, 1.47, 1.35 (mean 1.42).

A selection of 6 entries from above:

Variant KSSQSVLYESRNKNSVA / WAHTRGS / QQYHRLPLS gave 2.13, 2.75, 2.38 (mean 2.42).
Variant KSSQSVLYHHRNKNSVA / WAMTRES / QQYHRLPLS gave nd, 3.05, nd.
Variant KSSQSVLYESRNKNSVA / WADTRES / QQYHQLELS gave nd, 4.54, 4.56 (mean 4.55).
Variant KSSQSVLYESRNANSVA / WAHTGES / QQYHRLPLS gave 3.80, nd, nd.
Variant KSSQSVLYESFNKNSVA / WARTRES / QQYHYLPLS gave 4.10, 3.00, 3.11 (mean 3.40).
Variant KSRQSVLYESRNKNSVA / WAWTRES / QQYHRLPLS gave nd, nd, 4.44.

From the AlphaSeq antibody data of Engelhart et al. 2022 (doi:10.1038/s41597-022-01779-4), copy in the FLAb collection.